Measurements as given in patent publication US20170165230A1, “USE OF GSK-3 INHIBITORS OR ACTIVATORS WHICH MODULATE PD-1 OR T-BET EXPRESSION TO MODULATE T CELL IMMUNITY” (priority 2014, published 2017).

Tests used:
[1] = tested on: PD-1 expression on T-cells; test: FACS of PD-1 expression induced by mixed lymphocyte reaction (C57Bl/6 + ICR/CD1 spleen T-cells, 60 hours); type: cell-based, mouse
Tbet transcription = test: qPCR of Tbet transcription in cells from EL4-OVA tumor-bearing OT-1 Tg mice; settings: mouse
Procedure: (§1) Single-strand cDNA was synthesized with an RT-PCR kit (Qiagen, Hilden, Germany) according to the manufacturer's instructions. Reverse transcription was performed using the RNA polymerase chain reaction (PCR) core kit (Applied Biosystems). Relative quantitative real-time PCR used SYBR green technology (Roche) on cDNA generated from the reverse transcription of purified RNA. After preamplification (95° C. for 2 min), the PCRs were amplified for 40 cycles (95° C. for 15 s and 60° C. for 60 s) in a sequence detection system (PE Prism 7000; Perkin-Elmer Applied Biosystems, USA). mRNA expression was normalized against GAPDH expression using the standard curve method.
(§2) EL4 tumor cells taken from the log phase of in vitro growth were pulsed with ova peptide for 1 hr at 37 C before washing and injecting into OT-1 Tg mice (typically 3×10^6 cells). […] Tumors were clearly visible after 1 wk and grew progressively, in an encapsulated fashion. Induced tumors were measured on a daily basis using a vernier caliper (Helmich et al, 2001, J Immunol 166: 6500-6508; Quezada et al, 2010, J Exp Med 207: 637-650). […]

EL4 tumor cells = test: Intradermal EL4 / EL4-OVA tumor model in OT-1 Tg mice, tumor growth; settings: mouse, in vivo
CD44 expression = tested on: CD44 expression
Description: (§3) The presence of cells was confirmed by using forward scatter height or side scatter height n the form of a dot and contor plots. […] Non-stained cells were used a control.

CD3 expression = test: FACS of CD3 expression on OVA-activated OT-1 T-cells; type: cell-based, mouse
Description: as §3

[2] = tested on: Tbet (Tbx21) transcription; test: qPCR of Tbet transcription in OT-1 T-cells stimulated in vitro by OVA peptide/EL4; type: cell-based, mouse
Procedure: as §1
(§4) Cells were then stained for FACs with APC conjugated anti-PD-1 (CD279) (a, b) or subjected to qPCR (c, d) as described in the Materials and Methods. Reverse transcription was performed using the RNA polymerase chain reaction (PCR). PCRs were amplified for 40 cycles in a sequence detection system. mRNA expression was normalized against GAPDH (Glyceraldehyde 3-phosphate dehydrogenase) expression using the standard curve method.

[3] = tested on: PD-1 expression on OT-1 T-cells; test: FACS of PD-1 surface expression on OT-1 T-cells stimulated in vitro by OVA peptide presented by EL-4 cells; type: cell-based, mouse
Procedure: Non-stained cells were used a control.
as §4
T-cells were incubated in the presence or absence of anti-PD-1 and then subjected to FACs or qPCR as described in the Materials and Methods.

PD-1 transcription = test: qPCR of PD-1 transcription in cells from EL4-OVA tumor-bearing OT-1 Tg mice; settings: mouse
Procedure: as §1, §2

O=C1NC(=O)C(c2ccccc2[N+](=O)[O-])=C1Nc1ccc(O)c(Cl)c1 [SB415286, 3-(3-chloro-4-hydroxyphenylamino)-4-(2-nitrophenyl)-1H-pyrrole-2,5-dione]
PD-1 expression induced in the MLR (FACS) [1]: inhibits PD-1 expression
Tbet transcription in vivo (qPCR) (Tbet transcription): increased Tbet transcription; also recorded: increased Tbet expression
tumor growth (EL4 tumor cells): prevented tumor growth at all concentrations of OVA peptide
tumor growth (tumor diameter) (EL4 tumor cells): tumors were completely eliminated at all OVA concentrations
tumor growth of EL4 cells in the absence of OVA peptide (EL4 tumor cells): tumor was visible
CD44 expression (FACS profile) (CD44 expression): unaltered CD44 expression
CD3 expression (FACS profile) (CD3 expression): unaltered CD3 expression
Tbet transcription (qPCR) [2]: increased Tbet transcription
PD-1 surface expression (FACS profile) [3]: reduces PD-1 expression
PD-1 transcription in vivo (qPCR) (PD-1 transcription): inhibited PD-1 transcription; also recorded: reduced tumor size and PD-1 transcription to the same extent as anti-PD-1 alone; also recorded: same as the level of PD-1 in the absence of tumor

Entries after “also recorded” stand apart in the source; their conditions may differ.
